# scFv variants of Ab-14 (heavy chain) against a SARS-CoV-2 spike peptide

Data: MIT Lincoln Laboratory AlphaSeq set, Engelhart et al. 2022, doi:10.1038/s41597-022-01779-4, as distributed in FLAb.

The target is the same throughout: PDVDLGDISGINAS, from the HR2 region of SARS-CoV-2 spike.

Parent: Ab-14, a human scFv built as VH, the linker GGGGSGGGGSGGGGS, VL. Only the CDRs of the heavy chain vary.
VH: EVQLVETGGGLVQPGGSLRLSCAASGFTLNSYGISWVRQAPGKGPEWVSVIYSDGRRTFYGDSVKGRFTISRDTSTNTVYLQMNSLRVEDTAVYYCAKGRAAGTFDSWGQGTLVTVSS
VL: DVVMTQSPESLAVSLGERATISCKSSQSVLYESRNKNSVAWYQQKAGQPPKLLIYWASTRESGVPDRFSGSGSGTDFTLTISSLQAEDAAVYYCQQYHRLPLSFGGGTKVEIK

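Phage display of a naive human antibody library on the peptide gave the parent. AAYL49 was designed without a model: most single CDR substitutions and a random sample of double and triple ones. In AlphaSeq, yeast of one mating type display the scFv and yeast of the other type display the target. Binding brings cells together so that they mate, and sequencing counts the barcode pairs among the diploids. Read counts were normalised to the haploid input and turned into Kd by a linear fit to BCL2-family pairs of known affinity, for each replicate. Mating was done three times.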

Substitutions are numbered in sequence along the VH above, starting at 1 (not Kabat). Scale: log10 of Kd in nM, estimated from mating counts; low values are strong binders. A mean of the replicates is given; it leaves out those without a signal. "ND" means that the variant was in the library but no mating with the target was seen in that replicate; the authors take this as a sign of poor binding, and no number exists.

| changes | replicates, log10 nM | mean, log10 nM |
|---|---|---|
| G26I+V50N+G61Q | ND / ND / ND | ND |
| G26E+R57L+K65A | 5.77 / 4.22 / 4.65 | 4.88 |
| K65Y+R100N+D106F | ND / ND / 4.86 | 4.86 |
| Y52I+A101K+S107V | ND / 3.44 / ND | 3.44 |
| S31L+G33P+A101I | ND / 4.19 / ND | 4.19 |
| T28Q+I34Y+D106Q | ND / ND / ND | ND |
| F59Q+R100V+G103M | ND / ND / ND | ND |
| D54R+T58G+S63K | ND / ND / 3.39 | 3.39 |
| V50P+G55L+A101S | ND / 3.39 / ND | 3.39 |
| N30G+Y52I+S53A | ND / ND / ND | ND |
| L29T+G55R+R56H | ND / ND / 4.06 | 4.06 |
| G33Y+G61R+D106P | 4.32 / ND / 4.68 | 4.50 |
| T58F+A101S+A102F | 2.21 / 1.82 / 3.30 | 2.44 |
| I34T+K65C+G99N | ND / 4.86 / ND | 4.86 |
| Y60H+A102I+F105L | ND / 3.54 / ND | 3.54 |
| R56T+R100G | ND / ND / ND | ND |
| L29C+I34S+G55S | 4.63 / ND / 3.92 | 4.27 |
| Y52P+R57W+S107Y | 5.00 / ND / ND | 5.00 |

Continued, with the values leading:

| replicates, log10 nM | mean, log10 nM | changes |
|---|---|---|
| ND / ND / ND | ND | N30W+G33A+T58W |
| ND / 3.29 / ND | 3.29 | Y32C+V64I+A102Q |
| ND / ND / ND | ND | I34W+D62V+R100S |
| ND / ND / ND | ND | A101M+G103Y+S107P |
| ND / ND / ND | ND | G26H+R57P+G99R |
| ND / ND / ND | ND | Y32K+D62E+S107W |
| ND / ND / ND | ND | S35Y+G99I+A101C |
| ND / ND / ND | ND | I34V+I51C+G55W |
| 1.57 / 1.49 / 1.22 | 1.43 | T58R+G61C |
| ND / ND / ND | ND | S35K+S53I+D62A |
| ND / ND / ND | ND | I51M+D62V+F105C |
| ND / ND / ND | ND | S31L+D62N+G103Y |
| 3.26 / 3.64 / 3.55 | 3.48 | N30Y+Y60T+R100S |
| ND / 4.19 / ND | 4.19 | N30F+R56D+G61Y |
| ND / ND / ND | ND | I51F+D62Y |
| 0.90 / 0.83 / 0.74 | 0.82 | T58S+G103F+T104V |
| 1.10 / 1.54 / 1.23 | 1.29 | T28E+K65Y+A101W |
| 4.98 / 3.81 / ND | 4.39 | G26F+G61D+F105I |

The last 4 entries again:

| changes | replicates, log10 nM | mean, log10 nM |
|---|---|---|
| I51F+D62Y | ND / ND / ND | ND |
| T58S+G103F+T104V | 0.90 / 0.83 / 0.74 | 0.82 |
| T28E+K65Y+A101W | 1.10 / 1.54 / 1.23 | 1.29 |
| G26F+G61D+F105I | 4.98 / 3.81 / ND | 4.39 |

Empty control strains, which show no peptide, gave a signal in 15% of pairings with library AAYL49; the median was 4.06 and 95% of these signals were weaker than 2.83. No background was subtracted. Parent in this assay: reference entry 0.65, copy in this library 4.11 (one replicate of three).